Laboratory results published in article PMC4281105 (2014).

Assays:
hRSV strain Long = test: hRSV CPE assay; type: cell-based, human respiratory syncytial virus; details: HEp-2 CC50 / RSV CPE EC50
in vitro [1] = details: human, HEp-2 cells
RSV = test: viral titer; type: cell-based, human respiratory syncytial virus; details: 10 µM
physchem = details: kinetic from dmso stock
[2] = for aqueous stability, 1:1 PBS/ACN: percent parent remaining after 48 h in 1:1 PBS and acetonitrile; for aqueous stability, PBS: percent parent remaining after 48 h in PBS
in vitro [3] = details: human, Fa2N-4 immortalized human hepatocytes
[4] = at each of 3 pH levels

Row | Structure (SMILES) | selectivity index (CC50/EC50) (hRSV strain Long) | CC50 at 5 days (in vitro [1]) | further results
1 | COCCCNC(=O)c1ccc(Cn2c(=O)c3ccccc3n(Cc3ccc(C)cc3)c2=O)cc1 [Compound 2, N-(3-Methoxypropyl)-4-((1-(4-methylbenzyl)-2,4-dioxo-1,2-dihydroquinazolin-3(4H)-yl)methyl)benzamide] | ~ 24 and >23.8 | > 50 µM | viral titer reduction, fold as compared to control (RSV): ~ 14,000 fold; solubility (physchem; plasma or biological fluid): 2.5 µM (≈ 1.18 µg/mL); aqueous stability, 1:1 PBS/ACN [2]: 94.0%; aqueous stability, PBS [2]: 88.1%
2 | COCCCNC(=O)c1ccc(Cn2c(=O)c3ccccc3n(Cc3ccccc3Br)c2=O)cc1 [Compound 8, 4-((1-(2-Bromobenzyl)-2,4-dioxo-1,2-dihydroquinazolin-3(4H)-yl)methyl)-N-(3-methoxypropyl)benzamide] | <0.2 | 8.2 ± 0.2 µM | 
3 | COCCCNC(=O)c1ccc(Cn2c(=O)c3ccccc3n(Cc3ccc(Br)cc3)c2=O)cc1 [Compound 10, 4-((1-(4-Bromobenzyl)-2,4-dioxo-1,2-dihydroquinazolin-3(4H)-yl)methyl)-N-(3-methoxypropyl)benzamide] | >55.6 | > 50 µM | 
4 | COCCCNC(=O)c1ccc(Cn2c(=O)c3ccccc3n(Cc3ccc(Cl)cc3)c2=O)cc1 [Compound 13, 4-((1-(4-Chlorobenzyl)-2,4-dioxo-1,2-dihydroquinazolin-3(4H)-yl)methyl)-N-(3-methoxypropyl)benzamide] | >7.5 | > 50 µM | 
5 | COCCCNC(=O)c1ccc(Cn2c(=O)c3ccccc3n(Cc3ccc(OC)cc3)c2=O)cc1 [Compound 14, 4-((1-(4-Methoxybenzyl)-2,4-dioxo-1,2-dihydroquinazolin-3(4H)-yl)methyl)-N-(3-methoxypropyl)benzamide] | >25.0 | > 50 µM | 
6 | COCCCNC(=O)c1ccc(Cn2c(=O)c3ccccc3n(Cc3ccc([N+](=O)[O-])cc3)c2=O)cc1 [Compound 15, N-(3-Methoxypropyl)-4-((1-(4-nitrobenzyl)-2,4-dioxo-1,2-dihydroquinazolin-3(4H)-yl)methyl)benzamide] | >100.0 | > 50 µM | viral titer reduction, fold as compared to control (RSV): > 400,000 fold; solubility (physchem; 23 °C, pH 7.4, aqueous buffer): 1.3 µM (≈ 0.653 µg/mL); CC50 (in vitro [3]): > 50 µM; passive permeability in words [4]: Moderate to good; aqueous stability, 1:1 PBS/ACN [2]: 94.9%; aqueous stability, PBS [2]: 83.4%
7 | COCCCNC(=O)c1ccc(Cn2c(=O)c3ccccc3n(Cc3ccc(C(F)(F)F)cc3)c2=O)cc1 [Compound 16, 4-((2,4-Dioxo-1-(4-(trifluoromethyl)benzyl)-1,2-dihydroquinazolin-3(4H)-yl)methyl)-N-(3-methoxypropyl)benzamide] | >38.5 | > 50 µM | 
8 | COCCCNC(=O)c1ccc(Cn2c(=O)c3ccccc3n(Cc3ccc(C#N)cc3)c2=O)cc1 [Compound 17, 4-((1-(4-Cyanobenzyl)-2,4-dioxo-1,2-dihydroquinazolin-3(4H)-yl)methyl)-N-(3-methoxypropyl)benzamide] | 7.7 | 12.5 ± 1.2 µM | 
9 | COCCCNC(=O)c1ccc(Cn2c(=O)c3ccccc3n(Cc3ccc(C(C)C)cc3)c2=O)cc1 [Compound 19, 4-((1-(4-isopropylbenzyl)-2,4-dioxo-1,2-dihydroquinazolin-3(4H)-yl)methyl)-N-(3-methoxypropyl)benzamide] | > 100 and >166.7 |  | CC50 at 3 days (in vitro [1]): > 50 µM; viral titer reduction, fold as compared to control (RSV): > 400,000 fold; CC50 (in vitro [3]): > 30 µM; aqueous stability, PBS [2]: 27%
10 | COCCCNC(=O)c1ccc(Cn2c(=O)c3ccccc3n(Cc3ccc4nonc4c3)c2=O)cc1 [Compound 20, 4-((1-(Benzo[c][1,2,5]oxadiazol-5-ylmethyl)-2,4-dioxo-1,2-dihydroquinazolin-3(4H)-yl)methyl)-N-(3-methoxypropyl)benzamide] | >10.2 | > 50 µM | 
11 | COCCCNC(=O)c1ccc(Cn2c(=O)c3ccccc3n(Cc3cc(C)on3)c2=O)cc1 [Compound 21, N-(3-Methoxypropyl)-4-((1-((5-methylisoxazol-3-yl)methyl)-2,4-dioxo-1,2 dihydroquinazolin-3(4H)-yl)methyl)benzamide] | <0.2 | 7.7 ± 0.7 µM | 
12 | COCCCNC(=O)c1ccc(Cn2c(=O)c3ccccc3n(Cc3ccccn3)c2=O)cc1 [Compound 22, 4-((2,4-Dioxo-1-(pyridin-2-ylmethyl)-1,2-dihydroquinazolin-3(4H)-yl)methyl)-N-(3-methoxypropyl)benzamide] | <0.3 | 16 ± 0.3 µM | 
13 | COCCCNC(=O)c1ccc(Cn2c(=O)c3ccccc3n(Cc3cccnc3)c2=O)cc1 [Compound 23, 4-((2,4-Dioxo-1-(pyridin-3-ylmethyl)-1,2-dihydroquinazolin-3(4H)-yl)methyl)-N-(3-methoxypropyl)benzamide] | <0.2 | 8 ± 0.3 µM | 
14 | COCCCCNC(=O)c1ccc(Cn2c(=O)c3ccccc3n(Cc3ccc(C)cc3)c2=O)cc1 [Compound 27, N-(4-Methoxybutyl)-4-((1-(4-methylbenzyl)-2,4-dioxo-1,2-dihydroquinazolin-3(4H)-yl)methyl)benzamide] | 7.8 | 6.5 ± 0.3 µM | 
15 | Cc1ccc(Cn2c(=O)n(Cc3ccc(C(=O)NCC4CCC4)cc3)c(=O)c3ccccc32)cc1 [Compound 30, N-(Cyclobutylmethyl)-4-((1-(4-methylbenzyl)-2,4-dioxo-1,2-dihydroquinazolin-3(4H)-yl)methyl)benzamide] | 7.9 | 7.6 ± 0.3 µM | 
16 | Cc1ccc(Cn2c(=O)n(Cc3ccc(C(=O)N4CCOCC4)cc3)c(=O)c3ccccc32)cc1 [Compound 31, 1-(4-Methylbenzyl)-3-(4-(morpholine-4-carbonyl)benzyl)-quinazoline-2,4(1H,3H)-dione] | <0.4 | 17.5 ± 1.1 µM | 
17 | Cc1ccc(Cn2c(=O)n(Cc3ccc(C(=O)N4CCCC4)cc3)c(=O)c3ccccc32)cc1 [Compound 32, 1-(4-Methylbenzyl)-3-(4-(pyrrolidine-1-carbonyl)benzyl)-quinazoline-2,4(1H,3H)-dione] | <0.1 | 5.4 ± 0.3 µM | 
18 | Cc1ccc(Cn2c(=O)n(Cc3ccc(C(=O)N4CCCCC4)cc3)c(=O)c3ccccc32)cc1 [Compound 33, 1-(4-Methylbenzyl)-3-(4-(piperidine-1-carbonyl)benzyl)-quinazoline-2,4(1H,3H)-dione] | <0.2 | 7.3 ± 1.3 µM | 
19 | CNC(=O)c1ccc(Cn2c(=O)c3ccccc3n(Cc3ccc(C)cc3)c2=O)cc1 [Compound 34, N-Methyl-4-((1-(4-methylbenzyl)-2,4-dioxo-1,2-dihydroquinazolin-3(4H)-yl)methyl)benzamide] | 21.1 | 45.3 ± 1.7 µM | 
20 | Cc1ccc(Cn2c(=O)n(Cc3ccc(C(=O)N(C)C)cc3)c(=O)c3ccccc32)cc1 [Compound 35, N,N-Dimethyl-4-((1-(4-methylbenzyl)-2,4-dioxo-1,2-dihydroquinazolin-3(4H)-yl)methyl)benzamide] | <0.2 | 10.1 ± 0.2 µM | 
21 | Cc1ccc(Cn2c(=O)n(Cc3ccc(C(=O)Nc4ccncc4)cc3)c(=O)c3ccccc32)cc1 [Compound 42, 4-((1-(4-Methylbenzyl)-2,4-dioxo-1,2-dihydroquinazolin-3(4H)-yl)methyl)-N-(pyridin-4-yl)benzamide] |  | 1.8 ± 0.4 µM | 
22 | O=C(NCC1COC1)c1ccc(Cn2c(=O)c3ccccc3n(Cc3ccc([N+](=O)[O-])cc3)c2=O)cc1 [Compound 43, 4-((1-(4-Nitrobenzyl)-2,4-dioxo-1,2-dihydroquinazolin-3(4H)-yl)-methyl)-N-(oxetan-3-ylmethyl)benzamide] | >38.5 | > 50 µM | solubility (physchem; 23 °C, pH 7.4, aqueous buffer): 1.4 µM (≈ 0.701 µg/mL); solubility (physchem; plasma or biological fluid): 7.2 µM (≈ 3.6 µg/mL); improvement in PBS solubility over hit 2: 14 fold
23 | CC(C)c1ccc(Cn2c(=O)n(Cc3ccc(C(=O)NCC4COC4)cc3)c(=O)c3ccccc32)cc1 [Compound 44, 4-((1-(4-Isopropylbenzyl)-2,4-dioxo-1,2-dihydroquinazolin-3(4H)-yl)methyl)-N-(oxetan-3-ylmethyl)benzamide] | 9.0 | 3.6 ± 0.08 µM | 
24 | CC(C)(C)c1ccc(Cn2c(=O)n(Cc3ccc(C(=O)NCC4COC4)cc3)c(=O)c3ccccc32)cc1 [Compound 47, 4-((1-(4-tert-Butylbenzyl)-2,4-dioxo-1,2-dihydroquinazolin-3(4H)-yl)methyl)-N-(oxetan-3-ylmethyl)benzamide] |  | 3.7 ± 0.3 µM | 
25 | CC(C)c1ccc(Cn2c(=O)n(Cc3ccc(C(=O)NCc4ccco4)cc3)c(=O)c3ccccc32)cc1 [Compound 48, N-(Furan-2-ylmethyl)-4-((1-(4-isopropylbenzyl)-2,4-dioxo-1,2-dihydroquinazolin-3(4H)-yl)methyl)benzamide] | >41.7 | > 50 µM | solubility (physchem; 23 °C, pH 7.4, aqueous buffer): 0.3 µM (≈ 0.152 µg/mL)
26 | COc1cc(NC(=O)c2ccc(Cn3c(=O)c4ccccc4n(Cc4ccc(C(C)C)cc4)c3=O)cc2)ccn1 [Compound 50, 4-((1-(4-Isopropylbenzyl)-2,4-dioxo-1,2-dihydroquinazolin-3(4H)-yl)methyl)-N-(2-methoxypyridin-4-yl)benzamide] | <3.3 | < 1.6 µM | 

In brackets after ≈: the same amount, converted by molar mass. Several values for one entry are separate records, joined by “and”; a condition that tells them apart may be missing. Equal values may be shown once.
